From PMC3199254

Tested on: O=P(O)(O)O
Test: cells, lysate or membranes
Details: intact delta-Pst2 cells grown 24 h in Pi-limiting BG-11; room temperature; transport Km

Pst1 (Synechocystis sp. PCC 6803 substr. Kazusa)
Km: 5.16 µM
